From patent US8178690B2, “Compounds and methods for inhibiting the interaction of BCL proteins with binding partners” (Infinity Pharmaceuticals, Inc., priority 2006, dated 2012)

By UniProt entry, the sequences of proteins in these tests, tags left out.
UniProt P10415, whole entry: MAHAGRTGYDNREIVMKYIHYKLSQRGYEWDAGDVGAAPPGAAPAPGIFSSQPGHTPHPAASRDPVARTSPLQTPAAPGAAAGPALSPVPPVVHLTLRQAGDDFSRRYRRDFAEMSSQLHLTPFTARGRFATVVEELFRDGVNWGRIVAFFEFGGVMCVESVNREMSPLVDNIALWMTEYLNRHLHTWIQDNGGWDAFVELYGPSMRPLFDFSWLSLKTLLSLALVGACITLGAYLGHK
UniProt Q07817, whole entry: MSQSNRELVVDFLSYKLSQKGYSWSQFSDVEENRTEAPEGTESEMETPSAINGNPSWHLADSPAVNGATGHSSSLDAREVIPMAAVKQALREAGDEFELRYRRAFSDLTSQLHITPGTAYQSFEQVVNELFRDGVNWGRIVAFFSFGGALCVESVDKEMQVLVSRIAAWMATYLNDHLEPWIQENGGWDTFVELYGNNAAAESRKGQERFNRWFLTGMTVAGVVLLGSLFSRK

Assays:
[1] = molecular target: Bcl-2 (Homo sapiens, UniProt P10415); assay: Bcl-2 binding affinity analysis (fluorescence polarization binding assay); conditions: read-out: BcI2 (Ki, Bcl-2 binding affinity)
Source text: (§1) Bcl-2 and Bcl-xL binding may be determined using a variety of known methods. One such assay is a sensitive and quantitative in vitro binding assay using fluorescence polarization (FP) described by Wang, J.-L.; Zhang, Z-J.; Choksi, S.; Sjam. S.; Lu, Z.; Croce, C. M.; Alnemri, E. S.; Komgold, R.; Huang, Z. Cell permeable Bcl-2 binding peptides: a chemical approach to apoptosis induction in tumor cells. Cancer Res. 2000, 60, 1498-1502).
(§2) Bcl-2 and Bcl-xL binding affinity analysis data is presented below for various compounds of the invention.

[2] = molecular target: Bcl-xL (Homo sapiens, UniProt Q07817); assay: Bcl-xL binding affinity analysis (fluorescence polarization binding assay); conditions: read-out: BcI-XI (Ki, Bcl-xL binding affinity)
Source text: as §1, §2

Ki [1] [nM]	Ki [2] [nM]	Compound
< 1	< 1000	COc1c(CN2O[C@@H](CO)[C@@H]([C@H](C)O)[C@H]2C(=O)N[C@H]2C[C@H]3C[C@@H]([C@@H]2C)C3(C)C)cccc1-c1cc(C(=O)N[C@@H](CN(C)C)CC(C)(C)C)cc(N(C)C)c1
< 1	< 1000	COc1c(CN2O[C@@H](CO)[C@@H]([C@H](C)O)[C@H]2C(=O)N[C@H]2C[C@H]3C[C@@H]([C@@H]2C)C3(C)C)cccc1-c1cc(C(=O)N[C@H](CN=C(N(C)C)N(C)C)CC(C)C)cc(N(C)C)c1
< 1	< 1000	COc1c(CN2O[C@@H](CO)[C@@H]([C@H](C)O)[C@H]2C(=O)N[C@H]2C[C@H]3C[C@@H]([C@@H]2C)C3(C)C)cccc1-c1cc(C(=O)N[C@@H](CC(C)C)CN2CCOCC2)cc(N(C)C)c1
< 1	< 1000	C[C@@H]1[C@@H](NC(=O)[C@@H]2[C@H]([C@H](C)O)[C@H](CO)ON2Cc2cccc(-c3cc(C(=O)O)cc(N(C)C)c3)c2OCCN(C)C)C[C@H]2C[C@@H]1C2(C)C
